Laboratory results from ChEMBL document CHEMBL1148414, “Conformer- and alignment-independent model for predicting structurally diverse competitive CYP2C9 inhibitors” (J Med Chem, 2004).

Protein sequences, listed by entry. Tags and fused reporters are not part of them.
UniProt P11712, whole entry: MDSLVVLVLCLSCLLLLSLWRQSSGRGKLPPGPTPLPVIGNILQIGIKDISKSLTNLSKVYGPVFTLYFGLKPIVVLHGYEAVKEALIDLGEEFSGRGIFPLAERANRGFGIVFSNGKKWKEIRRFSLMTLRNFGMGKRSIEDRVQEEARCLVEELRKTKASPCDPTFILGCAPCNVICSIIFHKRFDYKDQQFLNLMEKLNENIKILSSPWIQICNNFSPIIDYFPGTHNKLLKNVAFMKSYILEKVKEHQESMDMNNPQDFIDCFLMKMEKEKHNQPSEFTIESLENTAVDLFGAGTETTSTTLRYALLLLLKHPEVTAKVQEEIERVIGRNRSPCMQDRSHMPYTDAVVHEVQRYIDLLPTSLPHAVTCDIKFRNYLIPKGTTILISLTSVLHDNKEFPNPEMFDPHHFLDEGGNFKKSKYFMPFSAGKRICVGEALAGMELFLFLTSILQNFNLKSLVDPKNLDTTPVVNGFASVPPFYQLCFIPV

Molecular target: Cytochrome P450 2C9 (Homo sapiens, UniProt P11712)
Assay: Binding affinity towards cytochrome P450 2C9
Format: ADME

| SMILES | Ki [µM] |
| --- | --- |
| CCc1nc(N)nc(N)c1-c1ccc(Cl)cc1 [PYRIMETHAMINE] | 51.5 |
| O=c1c(O)c(-c2ccc(O)c(O)c2)oc2cc(O)cc(O)c12 [QUERCETIN] | 27 |
